Data on 21 molecules can be found in patent publication EP4825842A1, “DIVALENT BET DECOMPOSITION AGENT AND TARGETING MOLECULE-DRUG COMPLEX” (dated 2026).

Each structure is given as a SMILES string.

Experiment [1] deals with HIP-009 cells. Kind of experiment: Test Example 2: in vitro cell survival inhibitory effect of compound using nerve cell (HIP-009 cell). As to conditions: for Nerve selectivity: calculated from HIP-009 IC50 and SU-DHL-4 IC50; for Degree of improvement (vs. comparative compound): neural selectivity of each compound / neural selectivity of the comparative compound; for IC50: read-out: HIP-009 IC50, 50% rate of inhibition of cell survival, differentiated nerve cells, 7 days, total area occupied by the cells. The procedure: HIP-009 cells (Code No. 23002-009, Hippocampal Neural Stem Cells, Cosmo Bio Co., Ltd.) were cultured in Neural Stem Cell Growth Media (Code No. 21001-250, Cosmo Bio Co., Ltd.) at 37°C for 2 to 4 weeks using a CO2 incubator (95% air, 5% CO2) until confluency with half-volume media exchanges once or twice per week, then allowed to differentiate in Neuro Transition Media (Code No. 21003-250, Cosmo Bio Co., Ltd.), and seeded at 5000 to 10000 cells/0.04 mL/well to a 384-well plate (Code No. 781091, Greiner bio-one) using Neural Differentiation media (Code No. 210040250, Cosmo Bio Co., Ltd.). Neurites were elongated with half-volume media exchanges once or twice per week. Each medium was supplemented with supplements as described in the instruction and used after being allowed to pass through a 0.22 µm filter. The cells were used in evaluation 3 weeks or later after seeding to the 384-well plate by confirming the elongated neurites.
In order to detach the cells, Trypsin (Code No. 41004-100, Cosmo Bio Co., Ltd.) was added thereto, and the mixture was incubated at 37°C for 3 to 10 minutes using a CO2 incubator (95% air, 5% CO2). Cell detachment reaction was stopped by the addition of Trypsin Inhibitor (Code No. 41005-100, Cosmo Bio Co., Ltd.) in an equal amount.
The 384-well plate was subjected to the following operation before cell seeding. A poly(ethylenimine) solution (Code No. 03880-100ML, Sigma-Aldrich Co., LLC) was diluted with 1 × Borate Buffer (dilution of Pierce 20 × Borate Buffer (Code No. 28341, Thermo Fisher Scientific Inc.)) to prepare a 0.07% poly(ethylenimine) solution, 0.02 mL of which was added to each well and incubated at 37°C for 1 hour. Then, the plate was washed twice with 0.1 mL of PBS and once with 0.1 mL of Otsuka distilled water and left standing overnight for drying. 0.02 mL of Laminin from Engelbreth-Holm-Swarm murine sarcoma basement membrane (Code No. L2020-1MG, Sigma-Aldrich Co., LLC) diluted into 0.0033 mg/mL with PBS was added to each well and incubated at 37°C for 1 hour. Laminin was sucked out, then 0.1 mL of Otsuka distilled water was added to the plate until just before seeding, and the plate was left standing.
The cells of day 0 were photographed using Cell3iMager duos (SCREEN Holdings Co., Ltd.) before addition of a test compound, and the total area occupied by the cells was calculated. Nine serial dilutions of the test compound (10000 mmol/L solution in DMSO) were prepared at a dilution factor of √10 so as to attain 5 times the final concentration using the Neural Differentiation Media, and added in a volume of 1/5 to each well. The final concentration of DMSO was set to 0.1 vol% for this preparation. The cells thus supplemented with the test compound were cultured at 37°C for 7 days in a CO2 incubator (95% air, 5% CO2). The cells of day 7 were photographed using Cell3iMager duos, and the total area occupied by the cells was calculated. […] Rate of inhibition of cell survival(%) = 100−A/B × 100 [formula] • A: Total area of the cells of day 7 • B: Total area of the cells of day 0
The results were as shown in the column "HIP-009 IC50 (nmol/L)" in Table 33 below. The selectivity of each compound for nerve cells was calculated according to the following formula using the results thus obtained and the results of Test Example 1. [formula]
Degree of improvement (vs. the comparative compound) = Neural selectivity of each compound / Neural selectivity of the comparative compound

Experiment [2] deals with SU-DHL-4 cells. Kind of experiment: Test Example 1: in vitro cell survival inhibitory effect of compound using SU-DHL-4 cell line. As to conditions: read-out: SU-DHL-4 IC50; 50% rate of inhibition of cell survival; 72 hours; Cell Counting Kit-8. The procedure:
SU-DHL-4 cells (Code No. ACC 495, Deutsche Sammlung von Mikroorga nismen und Zellkulturen GmbH; DSMZ) were cultured in RPMI1640 medium (Code No. 11875-093, Thermo Fisher Scientific Inc.) supplemented with heat-inactivated fetal bovine serum (FBS: Code No. 10099-148, Thermo Fisher Scientific Inc.) in an amount that attained a final concentration of 10 vol% and a penicillin/streptomycin solution (PS: Code No. 15140-122, Thermo Fisher Scientific Inc.) in an amount that attained a final concentration of 1 vol% at 37°C using a CO2 incubator (95% air, 5% CO2). The cells were passaged at intervals of twice per week so as to maintain a cell density of 1 × 10 ^6 cells/mL or less in a volume of 20 to 40 mL.
The cultured SU-DHL-4 cells were seeded at 2000 cells/well to a transparent 384-well plate (Code No. 781182, Greiner bio-one). The cells thus seeded were precultured at 37°C for 18 to 25 hours in a CO2 incubator. Subsequently, a 1, 0.1, or 0.01 mmol/L solution of a test compound in DMSO was prepared, and nine serial dilutions were prepared at a dilution factor of √10 so as to attain 200 times the final concentration using the RPMI1640 medium containing FBS and PS, and added in a volume of 1/200 to each well. The final concentration of DMSO was set to 0.1 vol% for this preparation. The cells thus supplemented with the test compound were cultured at 37°C for 72 hours in a CO2 incubator. Subsequently, 0.020 mL of a solution of Cell Counting Kit-8 (Code No. CK04, Dojindo Laboratories) diluted 2-fold or 4-fold with phosphate-buffered saline (PBS) was added to each well. Color reaction was performed at 37°C for 2 to 3 hours in a CO2 incubator, followed by absorbance measurement at a wavelength of 450 nm using SpectraMax 340PC (Molecular Devices, LLC).
A general note: Tetrazolium assays rely on reduction of a dye to a coloured formazan, in cell work by metabolically active cells.

As for `CCC(=O)N1c2ccccc2[C@H](Nc2ccc(NC(=O)CNC(=O)Nc3ccc(OCCN4CCN(C(C)=O)CC4)cc3)cc2)C[C@@H]1C`, in experiment [1], the Nerve selectivity was 6300, the “Degree of improvement (vs. comparative compound)” value worked out at 48 and the IC50 (usually the concentration that gives 50% inhibition) was determined as 480 nM. Besides, the IC50 in experiment [2] worked out at 0.075 nM.
For `CCC(=O)N1c2ccccc2[C@H](Nc2ccc(NC(=O)CNC(=O)Nc3ccc(OCCN4C[C@@H](C)N(C(C)=O)[C@@H](C)C4)cc3)cc2)C[C@@H]1C`, in that order: 6300, 48, 320 nM and 0.05 nM.
Consider `CCC(=O)N1c2ccccc2[C@H](Nc2ccc(NC(=O)CNC(=O)Nc3ccc(OCCN4CCN(C(C)=O)[C@@H](C)C4)cc3)cc2)C[C@@H]1C`, for which, in experiment [1], the Nerve selectivity is 10000 and the IC50 amounted to 260 nM. The concentration for half-maximal inhibition (IC50) in experiment [2] worked out at 0.026 nM.
As to `CCC(=O)N1c2ccccc2[C@H](Nc2ccc(NC(=O)CNC(=O)Nc3ccc(OCCN4[C@H](C)CN(C(C)=O)C[C@@H]4C)cc3)cc2)C[C@@H]1C`, in experiment [1], the Nerve selectivity was 1700 and the IC50 was 100 nM. The half-inhibitory concentration (IC50) in experiment [2] was found to be 0.061 nM.
As to `CCC(=O)N1c2ccccc2[C@H](Nc2ccc(NC(=O)CNC(=O)Nc3ccc(OCCN4CCN(C(C)=O)[C@H](CO)C4)cc3)cc2)C[C@@H]1C`, in experiment [1], the Nerve selectivity was 4600, the “Degree of improvement (vs. comparative compound)” value is reported as 35 and the IC50 came to 4200 nM. In addition, in experiment [2], the IC50 came to 0.92 nM.
For `CCC(=O)N1c2ccccc2[C@H](Nc2ccc(NC(=O)CNC(=O)Nc3ccc(OCCN4CCN(C(C)=O)CC4)cc3F)cc2)C[C@@H]1C`, in that order: 2000, “④ 45”, 200 nM and 0.1 nM.
For `CCC(=O)N1c2ccccc2[C@H](Nc2ccc(NC(=O)CNC(=O)Nc3ccc(OCCN4C[C@H]5C[C@@H]4CN5C(C)=O)cc3)cc2)C[C@@H]1C`, in that order: 2600, 20, 720 nM and 0.27 nM.
Regarding `CCC(=O)N1c2ccccc2[C@H](Nc2ccc(NC(=O)CNC(=O)Nc3ccc(NC(=O)CN4CCN5C(=O)CC[C@H]5C4)cc3)cc2)C[C@@H]1C`, the Nerve selectivity in experiment [1] was 560. The IC50 was 160 nM in experiment [1] and 0.28 nM in experiment [2].
Take `CCC(=O)N1c2ccccc2[C@H](Nc2ccc(NC(=O)CNC(=O)Nc3ccc(OCCN4CCN(C(C)=O)C(C)(C)C4)cc3)cc2)C[C@@H]1C`: in experiment [1], the Nerve selectivity was 1400, the “Degree of improvement (vs. comparative compound)” value came out at 11 and the IC50 was 2500 nM. Also, the IC50 in experiment [2] is 1.8 nM.
In the case of `CCC(=O)N1c2ccccc2[C@H](Nc2ccc(NC(=O)CNC(=O)Nc3ccc(CCCN4CCN(C)C(=O)[C@H]4C)cc3)cc2)C[C@@H]1C`, in experiment [1], the Nerve selectivity is 1000 and the IC50 is 270 nM. Moreover, the IC50 in experiment [2] turned out to be 0.26 nM.
In the case of `CCC(=O)N1c2ccccc2[C@H](Nc2ccc(NC(=O)CNC(=O)Nc3ccc(OCCN4CCN(C)C(=O)C4)cc3)cc2)C[C@@H]1C`, in experiment [1], the Nerve selectivity was 3000, the “Degree of improvement (vs. comparative compound)” value was 23 and the half-maximal inhibitory concentration (IC50) was 600 nM. Moreover, the IC50 in experiment [2] amounted to 0.2 nM.
`CCC(=O)N1c2ccccc2[C@H](Nc2ccc(NC(=O)CNC(=O)Nc3ccc(OCCN4CCN5C(=O)CC[C@H]5C4)cc3)cc2)C[C@@H]1C`: in experiment [1], the Nerve selectivity was 9600 and the IC50 was found to be 320 nM. The IC50 in experiment [2] came out at 0.033 nM.
For `CCC(=O)N1c2ccccc2[C@H](Nc2ccc(NC(=O)CNC(=O)Nc3ccc(OCCc4ccc(C)nc4)cc3)cc2)C[C@@H]1C`, in that order: 1200, 200 nM and 0.17 nM.
For the molecule `CCC(=O)N1c2ccccc2[C@H](Nc2ccc(NC(=O)CNC(=O)Nc3ccc(OCCN4CCN(C(=O)C5CC5)CC4)cc3)cc2)C[C@@H]1C`, in experiment [1], the Nerve selectivity is 1500, the “Degree of improvement (vs. comparative compound)” value stood at 12 and the IC50 turned out to be 760 nM. The IC50 in experiment [2] turned out to be 0.52 nM.
Consider `CCC(=O)N1c2ccccc2[C@H](Nc2ccc(NC(=O)CNC(=O)Nc3ccc(OCCN4C[C@H](C)N(C(C)=O)[C@@H](C)C4)cc3)cc2)C[C@@H]1C`, for which, in experiment [1], the Nerve selectivity is 2300 and the IC50 was 910 nM. Further, the IC50 in experiment [2] is 0.4 nM.
On the same counts, the results for `CCC(=O)N1c2ccccc2[C@H](Nc2ccc(NC(=O)CNC(=O)Nc3ccc(OCCN4CCN(C(C)=O)C[C@@H]4C)c(F)c3)cc2)C[C@@H]1C` are 2500, 69 nM and 0.028 nM.
With `CCC(=O)N1c2ccccc2[C@H](Nc2ccc(NC(=O)CNC(=O)Nc3ccc(OCCc4oc(C)nc4C)cc3)cc2)C[C@@H]1C`, in experiment [1], the Nerve selectivity was 1600, the “Degree of improvement (vs. comparative compound)” value is reported as “④ 37” and the concentration for half-maximal inhibition (IC50) came out at 190 nM. The IC50 in experiment [2] was determined as 0.12 nM.
Consider `CCC(=O)N1CCN(CCOc2ccc(NC(=O)NCC(=O)Nc3ccc(N[C@@H]4C[C@H](C)N(C(=O)CC)c5ccccc54)cc3)cc2)CC1`, for which, in experiment [1], the Nerve selectivity is 4300, the “Degree of improvement (vs. comparative compound)” value came out at 33 and the IC50 was determined as 850 nM. The IC50 in experiment [2] stood at 0.2 nM.
As for `CCC(=O)N1c2ccccc2[C@H](Nc2ccc(NC(=O)CNC(=O)Nc3ccc(NC(=O)CN4CCN(C)C(=O)[C@H]4C)cc3)cc2)C[C@@H]1C`, in experiment [1], the Nerve selectivity was 1100 and the IC50 was determined as 340 nM. Moreover, the IC50 in experiment [2] stood at 0.3 nM.
For `CCC(=O)N1c2ccccc2[C@H](Nc2ccc(NC(=O)CNC(=O)Nc3ccc(OCCN4CCN5C(=O)CC[C@H]5C4)c(F)c3)cc2)C[C@@H]1C`, in that order: 2700, 32 nM and 0.012 nM.
On the same counts, the results for `CCC(=O)N1c2ccccc2[C@H](Nc2ccc(NC(=O)CNC(=O)Nc3ccc(OCCN4CCC(=O)N(C)CC4)c(F)c3)cc2)C[C@@H]1C` are 1000, 16 nM and 0.016 nM.
